Experimental data published in PubChem BioAssay AID1851 (National Center for Advancing Translational Sciences (NCATS), 2009).
The list shows a part of the results, in another mix than the full data. Results filed as inconclusive are left out. The source made the active and inactive calls. Calls come from the whole dose curve; as a rule, active = well fitted curve in the direction sought with a large enough effect; inconclusive = small, poorly fitted or top-dose-only effect, or effect the other way; inactive = no such curve, though single readings can be large or run the other way.

By UniProt entry, the sequences of proteins in these tests, tags left out.
UniProt P33261, whole entry, looked up: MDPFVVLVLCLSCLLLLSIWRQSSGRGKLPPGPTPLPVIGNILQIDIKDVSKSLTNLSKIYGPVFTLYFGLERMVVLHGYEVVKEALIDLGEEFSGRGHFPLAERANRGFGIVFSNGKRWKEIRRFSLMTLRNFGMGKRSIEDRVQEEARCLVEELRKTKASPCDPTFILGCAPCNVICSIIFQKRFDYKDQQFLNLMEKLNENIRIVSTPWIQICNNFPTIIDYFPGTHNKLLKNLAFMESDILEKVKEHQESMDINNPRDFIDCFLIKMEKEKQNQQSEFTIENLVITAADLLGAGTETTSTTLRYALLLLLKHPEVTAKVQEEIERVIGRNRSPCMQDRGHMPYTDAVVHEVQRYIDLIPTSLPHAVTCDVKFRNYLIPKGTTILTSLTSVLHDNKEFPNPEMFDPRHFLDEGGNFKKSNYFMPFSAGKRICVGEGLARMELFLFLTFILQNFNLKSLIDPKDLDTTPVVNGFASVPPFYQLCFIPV

What follows are compounds tested against Cytochrome P450 2C19 (Homo sapiens) (UniProt P33261) (assay: Cytochrome panel assay with activity outcomes). Details: recombinant CYP, pro-luciferin dealkylation, luminescence, p450-cyp2c19; at 57.1 µM (top of the series).
% is set by controls: 0 for no effect and ±100 for the full control effect.

SMILES | activity, negative = inhibition
O=c1[nH]c2ccccc2n1C1CCN(CCCC(c2ccc(F)cc2)c2ccc(F)cc2)CC1 | inactive: -26.9%
